Ki data for one compound are collected here from BindingDB's records for doi:10.1007/bf00168610 (UniversitÄT Heidelberg, 1991).

Amino acid sequences for entries named in this document (tags omitted).
UniProt P47745, whole entry: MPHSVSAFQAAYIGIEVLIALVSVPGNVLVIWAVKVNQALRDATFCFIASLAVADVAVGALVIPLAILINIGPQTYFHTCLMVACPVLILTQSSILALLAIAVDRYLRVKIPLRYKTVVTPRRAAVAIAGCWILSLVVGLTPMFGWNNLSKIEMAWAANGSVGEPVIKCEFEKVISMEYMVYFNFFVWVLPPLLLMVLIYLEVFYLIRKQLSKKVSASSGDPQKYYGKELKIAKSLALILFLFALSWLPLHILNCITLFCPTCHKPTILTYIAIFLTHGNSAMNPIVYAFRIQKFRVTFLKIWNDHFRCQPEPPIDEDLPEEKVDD

The structures appear in SMILES notation. Values joined by “and” are separate entries in the source; they are usually repeats but may differ in a detail not shown here. Equal entries are not always repeated.

The target in the experiment is Adenosine receptor A1 (Cavia porcellus, UniProt P47745).

`Cn1c(=O)c2[nH]cnc2n(C)c1=O` [Theophylline (1,3-dimethylxanthine)]: the Ki – broadly, a measure of affinity in units of concentration, obtained from inhibition or displacement – is 5.98 µM and 7.06 µM.
